Test system: flore ruménale
Test: in vitro rumen flora fermentation, nitrogen use
Conditions: for fermentescibilité des sources protéiques: graine de lupin doux, tourteau d'arachide, tourteau de soya

Row | Compound | effets sur l'activité microbienne ou sur la production de gaz à partir d'azote protéique | quantité d'azote ammoniacal fixée par les bactéries (synthèse microbienne) | fermentescibilité des sources protéiques
1 | nigéricine [reference compound] | effets négatifs | effet inhibiteur | diminue notablement
2 | COC1CC(CC(O)CCC(C)C=C(C)C(=O)O)OC2(OC(C)(C3CCC(C)(C4OC(C5OC(O)(CO)C(C)CC5C)CC4C)O3)CC2C)C1C (stereo not shown) [abiérixine] |  |  | diminue notablement

From patent EP0179751B1, “Ionophore polyether, process for its preparation and its use” (SANOFI, priority 1984, dated 1986)
